Test results as given in patent US20250115678A1 (AstraZeneca / MedImmune, published 2025).

T1: human LRRC15 recombinant extracellular domain protein (human, UniProt Q8TF66 22-538)
T1 construct: extracellular domain; also called LRRC15 human
T1 sequence (looked up): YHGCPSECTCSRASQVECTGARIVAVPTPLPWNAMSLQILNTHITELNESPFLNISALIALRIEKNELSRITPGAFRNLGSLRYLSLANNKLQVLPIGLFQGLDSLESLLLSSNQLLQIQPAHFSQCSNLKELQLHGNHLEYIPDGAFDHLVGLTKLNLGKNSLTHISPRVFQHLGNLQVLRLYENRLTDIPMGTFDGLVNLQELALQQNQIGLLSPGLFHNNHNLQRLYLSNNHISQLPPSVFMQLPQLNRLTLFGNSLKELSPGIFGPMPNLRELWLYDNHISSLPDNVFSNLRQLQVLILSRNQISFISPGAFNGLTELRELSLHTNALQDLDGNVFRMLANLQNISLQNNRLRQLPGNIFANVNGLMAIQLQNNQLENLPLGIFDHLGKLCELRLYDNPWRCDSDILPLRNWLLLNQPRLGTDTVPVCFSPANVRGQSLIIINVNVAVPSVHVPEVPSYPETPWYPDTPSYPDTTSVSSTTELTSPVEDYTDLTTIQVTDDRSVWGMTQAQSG

B1: TPP-46959 (other)
light: not shown
heavy 1: EVQLVQSGAEVKKPGASVKVSCKASGYKFSSYWIEWVKQAPGQGLEWIGEILPGSDTTNYAQKFQDRVTFTSDTSISTAYMELSRLRSDDTAVYYCARDRGNYRAWFGYWGQGTLVTVSSASTKGPSVFPLAPSSKSTSGGTAALGCLVKDYFPEPVTVSWNSGALTSGVHTFPAVLQSSGLYSLSSVVTVPSSSLGTQTYICNVNHKPSNTKVDKRVEPKSCDKTGGSEVQLVESGGGLVQPGGSLRLSCVASGDVHKINFLGWYRQAPGKEREKVAHISIGDQTDYADSAKGRFTISRDESKNMVYLQMNSLKPEDTAVYFCRAFSRIYPYDYWGQGTLVTVSSGGGGSTHTCPPCPAPPVAGPSVFLFPPKPKDTLMISRTPEVTCVVVDVKHEDPEVKFNWYVDGVEVHNAKTKPREEQYNSTYRVVSVLTVLHQDWLNGKEYKCKVSNKALPAPIEKTISKAKGQPREPQVCTLPPSREEMTKNQVSLSCAVKGFYPSDIAVEWESNGQPENNYKTTPPVLDSDGSFFLVSKLTVDKSRWQQGNVFSCSVMHEALHNRFTQKSLSLSPGK
heavy 2: EVQLVQSGAEVKKPGASVKVSCKASGYKFSSYWIEWVKQAPGQGLEWIGEILPGSDTTNYAQKFQDRVTFTSDTSISTAYMELSRLRSDDTAVYYCARDRGNYRAWFGYWGQGTLVTVSSASTKGPSVFPLAPSSKSTSGGTAALGCLVKDYFPEPVTVSWNSGALTSGVHTFPAVLQSSGLYSLSSVVTVPSSSLGTQTYICNVNHKPSNTKVDKRVEPKSCDKTGGSEVQLLESGGGLVQPGGSLRLSCAASGFTFTDYAIGWFRQAPGKEREGVSCIRVSDGSTYYADSVKGRFTISRDSSKNTLYLQMNSLRAEDTAVYYCAAGSLYTCVQSIVWPARPYYDMDYWGQGTLVTVSSGGGGSTHTCPPCPAPPVAGPSVFLFPPKPKDTLMISRTPEVTCVVVDVKHEDPEVKFNWYVDGVEVHNAKTKPREEQYNSTYRVVSVLTVLHQDWLNGKEYKCKVSNKALPAPIEKTISKAKGQPREPQVYTLPPCREEMTKNQVSLWCLVKGFYPSDIAVEWESNGQPENNYKTTPPVLDSDGSFFLYSKLTVDKSRWQQGNVFSCSVMHEALHNHYTQKSLSLSPGK
notes: T-cell engager in the CD8/TCR format: 2x LRRC15 Fab, 1x TCR VHH, 1x CD8 VHH; Residue 55 of L-CDR2 is E
B2: TPP-46956 (other)
light: not shown
heavy 1: B1 heavy 1 with K63N
heavy 2: B1 heavy 2 with K63N
notes: T-cell engager in the CD8/TCR format: 2x LRRC15 Fab, 1x TCR VHH, 1x CD8 VHH
B3: TPP-46957 (other)
light: not shown
heavy 1: B1 heavy 1 with K63Q
heavy 2: B1 heavy 2 with K63Q
notes: as for B2
B4: TPP-46958 (other)
light: not shown
heavy 1: B1 heavy 1 with T57A
heavy 2: B1 heavy 2 with T57A
notes: as for B2
B5: TPP-46960 (other)
light: not shown
heavy 1: B1 heavy 1
heavy 2: B1 heavy 2
notes: T-cell engager in the CD8/TCR format: 2x LRRC15 Fab, 1x TCR VHH, 1x CD8 VHH; Residue 55 of L-CDR2 is N

Each binder was assayed against T1, human LRRC15 recombinant extracellular … (assay: SPR single-cycle kinetics (Biacore 8K+), TCE captured on Protein G chip, LRRC15 ECD as analyte, 1:1 fit, average of 3 or 4 replicates).
Method: (§1) The affinities of the T-cell engagers to human, mouse and cyno LRRC15 recombinant proteins were measured by Surface Plasmon Resonance using a Single-Cycle Kinetics (SCK) method on a Biacore 8K+ system (CYTIVA).
(§2) The T-cell engagers were captured on a PROTEIN G chip and exposed to a series of increasing concentrations of human, mouse or cyno LRRC15 recombinant extracellular domain proteins (Acro Biosystems PROTEIN G). The fully corrected binding data were globally fitted to a 1:1 binding model to determine the KD using the Biacore™ Insight Evaluation Software (CYTIVA). Coloured sensorgram trace represents the raw data and black line the global 1:1 fit to that data. Values for kinetics parameters is shown in Table 8 are averages for 3 or 4 replicate sets of measurements.
For B1, the koff was 0.000468 s⁻¹ and the kon was 351000 M⁻¹ s⁻¹. In the case of B2, the koff is reported as 0.000684 s⁻¹ and the kon is reported as 305000 M⁻¹ s⁻¹. B3 gave a koff of 0.0006 s⁻¹ and a kon of 264000 M⁻¹ s⁻¹. B4 gave a koff of 0.000877 s⁻¹ and a kon of 283000 M⁻¹ s⁻¹. B5 showed a koff of 0.000291 s⁻¹ and a kon of 297000 M⁻¹ s⁻¹.

The binders below were run against T2, cyno LRRC15 recombinant extracellular domain protein (cyno, UniProt G7NYR2 22-538) in the same assay as above.
T2 construct: extracellular domain; also called LRRC15 cyno
Method: as §1, §2
With B1 the koff was 0.000568 s⁻¹ and the kon was 189000 M⁻¹ s⁻¹. Work on B2 yielded a koff of 0.000818 s⁻¹ and a kon of 170000 M⁻¹ s⁻¹. Work on B3 yielded a koff of 0.00075 s⁻¹ and a kon of 165000 M⁻¹ s⁻¹. For B4, the koff was 0.00109 s⁻¹ and the kon was 170000 M⁻¹ s⁻¹. In the case of B5, the koff is reported as 0.000379 s⁻¹ and the kon is reported as 170000 M⁻¹ s⁻¹.

Each binder was assayed against T3, mouse LRRC15 recombinant extracellular domain protein (mouse, UniProt Q80X72 22-536) in the same assay as above.
T3 construct: extracellular domain; also called LRRC15 mouse
Method: as §1, §2
Binder B1 has a Kd of 0.608 nM, a koff of 0.000144 s⁻¹ and a kon of 238000 M⁻¹ s⁻¹. B2 was tested, and the Kd was 1.01 nM, the koff was 0.000206 s⁻¹ and the kon was 205000 M⁻¹ s⁻¹. B3 showed a Kd of 0.953 nM, a koff of 0.000188 s⁻¹ and a kon of 198000 M⁻¹ s⁻¹. With B4 the Kd was 1.75 nM, the koff was 0.000343 s⁻¹ and the kon was 196000 M⁻¹ s⁻¹. In the case of B5, the Kd is reported as 0.281 nM, the koff is reported as 5.64e-05 s⁻¹ and the kon is reported as 200000 M⁻¹ s⁻¹.

Residue numbers refer to the chain shown, from its start.
